Data: patent CN116265487A (SANYOU BIO INC, dated 2023)

What follows are binders tested against T1, 生物素标记的hANG2-Fc蛋白 (human, biotin-labelled (sites not given)) (assay: FACS blocking of biotin-hANG2-Fc binding to huTie2-HEK293 cells).
T1 construct: also called biotin-hANG2-Fc

Row | IC50 | Binder
1 | 0.362 nM | BsAb30 (bispecific antibody) chain 1: not shown chain 2: EVQLVESGGGLVQPGGSLRLSCAASGFGLDYYAIGWFRQAPGKEREGVSCIGSSSKETNYADSVKGRFTISRDNAKNTVYLQMNSLRAEDTAVYYCTAGSPLCLISLQDHYGLYEYDYWGQGTLVTVSSGGGGSGGGGSGGGGSEIVLTQSPATLSLSPGERATLSCRASQSVSSYLAWYQQKPGQAPRLLIYGPSNRATGIPDRFSGGGSGTDFTLTISRLEPEDFAVYYCQHYGVSQHTFGQGTKLEIKRTVAAPSVFIFPPSDEQLKSGTASVVCLLNNFYPREAKVQWKVDNALQSGNSQESVTEQDSKDSTYSLSSTLTLSKADYEKHKVYACEVTHQGLSSPVTKSFNRGEC
2 | 0.415 nM | BsAb14 (bispecific antibody) chain 1: not shown chain 2: EIVLTQSPATLSLSPGERATLSCRASQSVSSYLAWYQQKPGQAPRLLIYGPSNRATGIPDRFSGGGSGTDFTLTISRLEPEDFAVYYCQHYGVSQHTFGQGTKLEIKRTVAAPSVFIFPPSDEQLKSGTASVVCLLNNFYPREAKVQWKVDNALQSGNSQESVTEQDSKDSTYSLSSTLTLSKADYEKHKVYACEVTHQGLSSPVTKSFNRGEC
3 | 0.411 nM | BsAb14-LALA (bispecific antibody) chain 1: not shown chain 2: EIVLTQSPATLSLSPGERATLSCRASQSVSSYLAWYQQKPGQAPRLLIYGPSNRATGIPDRFSGGGSGTDFTLTISRLEPEDFAVYYCQHYGVSQHTFGQGTKLEIKRTVAAPSVFIFPPSDEQLKSGTASVVCLLNNFYPREAKVQWKVDNALQSGNSQESVTEQDSKDSTYSLSSTLTLSKADYEKHKVYACEVTHQGLSSPVTKSFNRGEC
